# Key:
# LP-1 [1] = assay: 7 day pretreatment + 4-day co-treatment combination model (Cell Titer Glo); settings: second agent + tazemetostat, LP-1 t(4;14)
# L-363 = assay: as above; settings: second agent + tazemetostat, L-363 t(20;22)
# LP-1 [2] = assay: 7-day co-treatment combination model (Cell Titer Glo); settings: second agent + tazemetostat, LP-1 t(4;14)
# MM1.S = assay: as above; settings: second agent + tazemetostat
# U266 = assay: 7 day pretreatment + 4-day co-treatment combination model (Cell Titer Glo); settings: second agent + tazemetostat, U266 t(11;14)
# KMS-28-BM = assay: as above; settings: second agent + tazemetostat, KMS-28-BM t(4;14)
Compound,combinatorial effect by Loewe volumes (LP-1 [1]),combinatorial effect by Loewe volumes (L-363),combinatorial effect by Loewe volumes (KMS-28-BM),further results
"Cn1c(CCCC(=O)O)nc2cc(N(CCCl)CCCl)ccc21 [Bendamustine, bendamustine]",A (Additive),A (Additive),–,–
"CC(C)C[C@H](NC(=O)[C@H](Cc1ccccc1)NC(=O)c1cnccn1)B(O)O [Bortezomib, bortezomib]",S (Synergy),–,–,combinatorial effect by Loewe volumes (LP-1 [2]): A (Additive); Loewe volume (MM1.S): 0.508; combinatorial effect by Loewe volumes (U266): S (Synergy)
"N[C@@H](Cc1ccc(N(CCCl)CCCl)cc1)C(=O)O [Melphalan, melphalan]",–,A (Additive),S (Synergy),–
"O=C1CCC(N2C(=O)c3ccccc3C2=O)C(=O)N1 (stereo not shown) [Thalidomide, thalidomide]",A (Additive),–,–,–
"CC[C@]1(O)C[C@H]2CN(CCc3c([nH]c4ccccc34)[C@@](C(=O)OC)(c3cc4c(cc3OC)N(C=O)[C@H]3[C@@](O)(C(=O)OC)[C@H](OC(C)=O)[C@]5(CC)C=CCN6CC[C@]43[C@@H]65)C2)C1 [Vincristine, vincristine]",–,–,A (Additive),–

# From patent US20240293418A1, “COMBINATION THERAPY FOR TREATING CANCER” (Epizyme, Inc., priority 2016, published 2024)
